Values quoted from earlier work in patent US20090275605A1, “3,11 b-cis-Dihydrotetrabenazine for the Treatment of a Proliferative Disease or an Inflammatory Disease” (CAMBRIDGE LABORATORIES (IRELAND) LIMITED, priority 2005, published 2009).

By UniProt entry, the sequences of proteins in these tests, tags left out.
UniProt Q01827, whole entry: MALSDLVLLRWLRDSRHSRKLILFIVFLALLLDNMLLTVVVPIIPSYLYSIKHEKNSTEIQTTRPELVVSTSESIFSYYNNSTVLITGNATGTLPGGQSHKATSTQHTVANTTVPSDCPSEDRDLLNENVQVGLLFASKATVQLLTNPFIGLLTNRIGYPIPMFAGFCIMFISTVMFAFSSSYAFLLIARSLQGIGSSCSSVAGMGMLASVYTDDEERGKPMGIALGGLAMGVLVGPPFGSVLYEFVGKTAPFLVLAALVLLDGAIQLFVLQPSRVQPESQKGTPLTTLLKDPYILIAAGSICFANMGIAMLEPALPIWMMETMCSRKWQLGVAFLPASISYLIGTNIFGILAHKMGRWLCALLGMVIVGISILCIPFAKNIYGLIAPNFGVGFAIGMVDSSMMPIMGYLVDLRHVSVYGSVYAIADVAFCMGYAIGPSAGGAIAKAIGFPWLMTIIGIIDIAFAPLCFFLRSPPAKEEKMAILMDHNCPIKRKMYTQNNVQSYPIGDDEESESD

Molecular target: VMAT2 (Rattus norvegicus, UniProt Q01827)
Settings: in vitro; ratio versus (−)-α-[11C]dihydrotetrabenazine; cited from earlier work

(+)-α-dihydrotetrabenazine [(+)-α-[^11C]dihydrotetrabenazine]
Ki for [3H]methoxytetrabenazine relative to the Ki of the (−)-α isomer: > 2000 fold
